{"source": "paper PMC11905058", "about": "“Novel Leech Antimicrobial Peptides, Hirunipins: Real‐Time 3D Monitoring of Antimicrobial and Antibiofilm Mechanisms Using Optical Diffraction Tomography” (Advanced Science, 2025)", "type_in_all_cases": "cell-based", "key": {"[1]": {"tested_on": "MDRKP (328-83)", "conditions": "clinically isolated multidrug-resistant Klebsiella pneumonia; broth microdilution", "protocol": "(§1) The MICs of the peptides were measured by the Clinical and Laboratory Standards Institute (CLSI) broth microdilution method, as outlined in a previous study.^[ [26], [27] ^]\n(§2) Microbial Strains and Cell Lines: Multiple bacterial strains were used in this study. Standard stains included Escherichia coli (KCTC 1682), Pseudomonas aeruginosa (KCTC 1637), Staphylococcus aureus (KCTC1621) and Staphylococcus epidermidis (KCTC 1917) supplied from the Korean Collection for Type Cultures (KCTC) of the Korea Research Institute of Bioscience and Biotechnology (KRIBB). Clinically isolated multidrug-resistant bacteria included multidrug-resistant Klebsiella pneumonia (MDRKP 328-83), multidrug-resistant Acinetobacter baumannii (MDRAB 329-53), multidrug-resistant Pseudomonas aeruginosa (MDRPA 314-69), multidrug-resistant Enterobacter cloacae (MDRE 328-84) and multidrug-resistant Escherichia coli (MDREC 329-66) provided from Hospital of Chosun University, Korea. All bacterial strains were stored in 20% glycerol at −80 °C. For the subsequent experiments, the bacteria were recovered and cultured in the corresponding enrichment broth at 37 °C. The mouse macrophage RAW264.7, mouse fibroblast NIH-3T3 and human keratinocyte HaCat cells were cultured in Dulbecco’s modified Eagle’s medium (DMEM), supplemented with 10% (v/v) of fetal bovine serum (Sigma-Aldrich), 100 U/mL of penicillin and 0.1 mg/mL of streptomycin, at 37 °C in the presence of 5% CO2\n(§3) Minimal Inhibitory Concentrations (MICs): Bacteria were grown to mid-logarithmic phase and diluted in Mueller-Hinton broth (MHB) (Difco). The bacterial suspension (1×10^6 CFU/well) was added to a 96-well microtiter plate along with a two-fold serial dilution of samples. The plate was incubated at 37 °C for 24 hours and the bacterial growth inhibition was assessed by measuring the optical density using an ELISA plate reader. The minimum inhibitory concentration (MIC) was defined as the lowest concentration of samples that prevented visible bacterial growth."}, "[2]": {"tested_on": "MDREC (329-66)", "conditions": "clinically isolated multidrug-resistant Escherichia coli; broth microdilution", "protocol": "as §1, §2, §3"}, "[3]": {"tested_on": "MDRAB (329-53)", "conditions": "clinically isolated multidrug-resistant Acinetobacter baumannii; broth microdilution", "protocol": "as §1, §2, §3"}, "[4]": {"tested_on": "MDRPA (314-69)", "conditions": "clinically isolated multidrug-resistant Pseudomonas aeruginosa; broth microdilution", "protocol": "as §1, §2, §3"}}, "data": [{"smiles": "CC[C@H](C)[C@H](NC(=O)CN)C(=O)NCC(=O)N[C@@H](C)C(=O)N[C@H](C(=O)N[C@@H](CC(C)C)C(=O)N[C@@H](CCCCN)C(=O)N[C@H](C(=O)N[C@@H](CC(C)C)C(=O)N[C@H](C(=O)N[C@H](C(=O)NCC(=O)N[C@@H](CC(C)C)C(=O)N1CCC[C@H]1C(=O)N[C@@H](C)C(=O)N[C@@H](CC(C)C)C(=O)N[C@H](C(=O)N[C@@H](CO)C(=O)N[C@@H](Cc1c[nH]c2ccccc12)C(=O)N[C@H](C(=O)N[C@@H](CCCCN)C(=O)N[C@@H](CCCNC(=N)N)C(=O)N[C@@H](CCCCN)C(=O)N[C@@H](CCCNC(=N)N)C(=O)N[C@@H](CCC(N)=O)C(=O)N[C@@H](CCC(N)=O)C(N)=O)[C@@H](C)CC)[C@@H](C)CC)[C@@H](C)O)[C@@H](C)O)C(C)C)C(C)C", "note": "[Melittin, reference compound]", "values": [{"measurement": "Minimum inhibitory concentrations, MDRKP (328-83)", "setting": "[1]", "value": 128, "unit": "µg/mL"}, {"measurement": "Minimum inhibitory concentrations, MDREC (329-66)", "setting": "[2]", "value": 32, "unit": "µg/mL"}, {"measurement": "Minimum inhibitory concentrations, MDRAB (329-53)", "setting": "[3]", "value": 32, "unit": "µg/mL"}, {"measurement": "Minimum inhibitory concentrations, MDRPA (314-69)", "setting": "[4]", "value": 32, "unit": "µg/mL"}]}]}
